Consider 5 compounds from patent US20050085528A1 (priority 2003, published 2005).

The subject of one assay is cholesterol biosynthesis in replicon cells. The assay is described as follows: cells. The conditions noted are these: 72 h, read-out: Cholesterol IC50.
Turning to `COCc1c(C(C)C)nc(C(C)C)c(/C=C/[C@@H](O)C[C@@H](O)CC(=O)O)c1-c1ccc(F)cc1` [Cerivastatin], the half-inhibitory concentration (IC50) amounted to 100 nM. `CC(C)c1c(C(=O)Nc2ccccc2)c(-c2ccccc2)c(-c2ccc(F)cc2)n1CC[C@@H](O)C[C@@H](O)CC(=O)O` (relative stereo) [Atorvastatin, [R-(R*,R*)]-2-(4-fluorophenyl)-b,d-dihydroxy-5-(1-methylethyl)-3-phenyl-4[(phenylamino)carbonyl]-IH-pyrrole-1-heptanoic acid]: the IC50 was determined as 600 nM. Same read-out and setting: in the case of `CCC(C)(C)C(=O)O[C@H]1C[C@@H](C)C=C2C=C[C@H](C)[C@H](CC[C@@H]3C[C@@H](O)CC(=O)O3)[C@H]21` [Simvastatin] it was 1000 nM; in that of `CC[C@H](C)C(=O)O[C@H]1C[C@H](O)C=C2C=C[C@H](C)[C@H](CC[C@@H](O)C[C@@H](O)CC(=O)O)[C@H]21` [Pravastatin], 17500 nM.

For `CC[C@H](C)C(=O)O[C@H]1C[C@@H](C)C=C2C=C[C@H](C)[C@H](CC[C@@H]3C[C@@H](O)CC(=O)O3)[C@H]21` [Lovastatin], the IC50 came to 3300 nM.

The test system is the same in a further assay.
Assay: not given
As to conditions: added individually, FIG. 6b.
Consider `CC[C@H](C)C(=O)O[C@H]1C[C@@H](C)C=C2C=C[C@H](C)[C@H](CC[C@@H]3C[C@@H](O)CC(=O)O3)[C@H]21` [Lovastatin], for which the “Effect on cholesterol levels (amount of cholesterol synthesised)” value is “reduce cholesterol levels”.
